In EP2966079B1, “PYRIDOPYRIMIDINE OR PYRIMIDOPYRIMIDINE COMPOUND, PREPARATION METHOD, PHARMACEUTICAL COMPOSITION AND USE THEREOF” (Shanghai Institute of Materia Medica, Chinese Academy of …, priority 2013, dated 2014):

Tests used:
[1] = test system: human prostate cancer LNCap; experiment: Cell proliferation assay (MTS method), LNCap; format: cell-based; conditions: 72 h, read-out: LNCap IC50 (µM)
Protocol: (§1) Cell proliferation assay was based on two types of cell lines, i.e., human brain glioma U87MG and human prostate cancer LNCap, both of which were from ATCC. U87MG and LNCap contain PTEN gene deletion, and belongs to mTOR signal-dependent tumor cells. Cell culture media and related reagents were from GIBCO. U87MG cells were cultured in a MEM complete medium (containing 10% fetal bovine serum, 100 U/mL penicillin and 100 µg/mL streptomycin). […] Cells/compound was cultured for 3 days, and MTS method was used to test cell proliferation. MTS and PMS were purchased from Sigma company, a stock solution of MTS/PMS (20:1) was added into the test cells with 20 µL/well. After a suitable time of incubation, the proliferation assay results was recorded on a 96 well plate microplate reader. Relative cell viability% = (A490valueofadministeredgroup−lightvalueoftheblankgroup)/(lightvalueofDMSOgroup−lightvalueofblankgroup) × 100%. [formula]
(§2) The experimental data were processed with Microsoft Office Excel and Graphpad PRISM 5 to calculate IC50.

human brain glioma U87MG = experiment: Cell proliferation assay (MTS method), U87MG; format: cell-based; conditions: U-87 MG, 72 h, read-out: U87MG IC50 (µM)
Protocol: as §1, §2

| SMILES | IC50 [1] | IC50 (human brain glioma U87MG) |
| --- | --- | --- |
| COc1ccc(-c2cc3nc(N4CCOCC4)nc(N4CCOCC4)c3cn2)cc1CO [Compound 13, (5-(2,4-dimorpholinylpyrido[4,3-d]pyrimidin-7-yl)-2-methoxyphenyl)methanol] | 17.9 µM | > 60 µM |
| c1ccc(-c2cc3nc(N4CCOCC4)nc(N4CCOCC4)c3cn2)cc1 [Compound 26, (4,4'-(7-phenylpyrido[4,3-d]pyrimidin-2,4-diyl)-dimorpholine)] | 2.07 µM | 6.35 µM |
| COc1ccc(-c2ccc3c(N4C5CCC4COC5)nc(N4CCOCC4)nc3n2)cc1CO [Compound 4, 5-(4-(3-oxa-8-azabicyclo[3.2.1]octan-8-yl)-2-morpholinylpyrido[2,3-d]pyrimidin-7-yl)-2-methoxyphenylmethanol] | 0.06 µM | 0.24 µM |
| COc1ccc(-c2ccc3c(N4C5CCC4COC5)nc(N4CC5CCC(C4)O5)nc3n2)cc1CO [Compound 7] | 0.027 µM | 0.2 µM |
| COc1ccc(-c2cc3nc(N4CCOC[C@@H]4C)nc(N4CCOC[C@@H]4C)c3cn2)cc1CO [Compound 18, (5-(2,4-di((S)-3-methylmorpholinyl)pyrido[4,3-d]pyrimidin-7-yl)-2-methoxyphenyl)methanol] | 1.2 µM | 2.58 µM |
| CNC(=O)c1cccc(-c2ccc3c(N4C5CCC4COC5)nc(N4C5CCC4COC5)nc3n2)c1 [Compound 35, 3-(2,4-di(3-oxa-8-azabicyclo[3.2.1]octan-8-yl)pyrido[2,3-d]pyrimidin-7-yl)-N-methylbenzamide] | 0.24 µM | 0.51 µM |
| CNC(=O)c1cccc(-c2ccc3c(N4CC5CCC(C4)O5)nc(N4CCOC[C@@H]4C)nc3n2)c1 [Compound 49, 3-(4-(8-oxa-3-azabicyclo[3.2.1]octan-3-yl)-2-((S)-3-methylmorpholinyl)pyrido[2,3-d]pyrimidin-7-yl)-N-methylbenzamide] | 0.5 µM | 1 µM |
| CNC(=O)c1cccc(-c2ccc3c(N4C5CCC4COC5)nc(N4C[C@@H](C)O[C@@H](C)C4)nc3n2)c1 [Compound 45, 3-(4-(3-oxa-8-azabicyclo[3.2.1]octan-8-yl)-2-((2S,6R)-2,6-dimethylmorpholinyl)pyrido[2,3-d]pyrimidin-7-yl)-N-methylbenzamide] | 0.67 µM | 1.4 µM |
| COCCN(C)c1nc(N2C3CCC2COC3)c2ccc(-c3ccc(OC)c(CO)c3)nc2n1 [Compound 6, 5-(4-(3-oxa-8-azabicyclo[3.2.1]octan-8-yl)-2-((2-methoxyethyl)methylamino)pyrido[2,3-d]pyrimidin-7-yl)-2-methoxyphenylmethanol] | 0.22 µM | 1.07 µM |
| COc1ccc(-c2cc3nc(N4CCOC[C@@H]4C)nc(N4[C@@H]5CC[C@H]4COC5)c3cn2)cc1CO [Compound 25, (5-(4-((1R,5S)-3-oxa-8-azabicyclo[3.2.1]octan-8-yl)-2-((S)-3-methylmorpholinyl)pyrido[4,3-d]pyrimidin-7-yl)-2-methoxyphenyl)methanol] | 1.78 µM | 4.97 µM |
| COc1ccc(-c2ccc3c(N4CC5CCC(C4)O5)nc(N4CC5CCC(C4)O5)nc3n2)cc1CO [Compound 2, 5-(2,4-di(8-oxa-3-azabicyclo[3.2.1]octan-3-yl)pyrido[2,3-d]pyrimidin-7-yl)-2-methoxyphenyl methanol] | 0.89 µM | 0.21 µM |
| COc1ccc(-c2ccc3c(N4C[C@@H](C)O[C@@H](C)C4)nc(N4C5CCC4COC5)nc3n2)cc1CO [Compound 10, 5-(2-((1R,5S)-3-oxa-8-azabicyclo[3.2.1]octan-8-yl)-4-((2S,6R)-2,6-dimethylmorpholine)pyrido[2,3-d]pyrimidin-7-yl)-2-methoxyphenylmethanol] | > 60 µM | 23.9 µM |
| C[C@H]1COCCN1c1nc(N2CCOCC2)c2cnc(-c3ccccc3)cc2n1 [Compound 27] | 1.68 µM | 5.68 µM |
| COc1ccc(-c2ccc3c(N4C5CCC4COC5)nc(N4CCOC[C@@H]4C)nc3n2)cc1CO [Compound 3, 5-(4-(3-oxa-8-azabicyclo[3.2.1]octan-8-yl)-2-((S)-3-methylmorpholine)pyrido[2,3-d]pyrimidin-7-yl)-2-methoxyphenylmethanol] | < 0.027 µM | 0.11 µM |
| COc1ccc(-c2ccc3c(N4C5CCC4COC5)nc(N4C[C@@H](C)O[C@@H](C)C4)nc3n2)cc1CO [Compound 5, 5-(4-(3-oxa-8-azabicyclo[3.2.1]octan-8-yl)-2-((2S,6R)-2,6-dimethylmorpholine)pyrido[2,3-d]pyrimidin-7-yl)-2-methoxyphenylmethanol] | 0.06 µM | 0.32 µM |
| C[C@H]1COCCN1c1nc(N2CCOCC2)nc2cc(-c3ccccc3)ncc12 [Compound 29, (S)-3-methyl-4-(2-morpholinyl-7-phenylpyrido [4,3-d]pyrimidin-4-yl)morpholine] | 0.829 µM | 2.29 µM |

| SMILES | IC50 [1] | IC50 (human brain glioma U87MG) |
| --- | --- | --- |
| COc1ccc(-c2cc3nc(N4CCOCC4)nc(N4CC5CCC(C4)O5)c3cn2)cc1CO [Compound 21, (5-(4-(8-oxa-3-azabicyclo[3.2.1]octan-3-yl)-2-morpholinylpyrido[4,3-d]pyrimidin-7-yl)-2-methoxyphenyl)methanol] | 6.09 µM | 12.7 µM |
| c1ccc(-c2ncc3c(N4CC5CCC(C4)O5)nc(N4CC5CCC(C4)O5)nc3n2)cc1 [Compound 34, 3,3'-(7-phenylpyrimido[4,5-d]pyrimidin-2,4-diyl)-di(8-oxa-3-azabicyclo[3.2.1]octane)] | 0.99 µM | 9.32 µM |
| COc1ccc(-c2ccc3c(N4CCOCC4)nc(N4[C@@H]5CC[C@H]4COC5)nc3n2)cc1CO [Compound 9, 5-(2-((1R,5S)-3-oxa-8-azabicyclo[3.2.1]octan-8-yl)-4-morpholinylpyrido[2,3-d]pyrimidin-7-yl)-2-methoxyphenylmethanol] | 0.32 µM | 0.51 µM |
| c1ccc(-c2cc3nc(N4CC5CCC(C4)O5)nc(N4CCOCC4)c3cn2)cc1 [Compound 28, 3-(4-morpholinyl-7-phenylpyrido[4,3-d]pyrimidin-2-yl)-8-oxa-3-azabicyclo[3.2.1]octane] | 4.2 µM | 6.44 µM |
| COc1ccc(-c2ccc3c(N4C5CCC4COC5)nc(N4C5CCC4COC5)nc3n2)cc1CO [Compound 1, 5-(2,4-di(3-oxa-8-azabicyclo[3.2.1]octan-8-yl)pyrido[2,3-d]pyrimidin-7-yl)-2-methoxyphenylmethanol] | < 0.027 µM | 0.33 µM |
| CNC(=O)c1cccc(-c2ccc3c(N4CC5CCC(C4)O5)nc(N4C5CCC4COC5)nc3n2)c1 [Compound 52] | 0.42 µM | 1.01 µM |
| COc1ccc(-c2cc3nc(N4CC5CCC(C4)O5)nc(N4CC5CCC(C4)O5)c3cn2)cc1CO [Compound 20, (5-(2,4-di(8-oxa-3-azabicyclo[3.2.1]octan-3-yl)pyrido[4,3-d]pyrimidin-7-yl)-2-methoxyphenyl)methanol] | 2.59 µM | 18.7 µM |
| COc1ccc(-c2cc3nc(N4CCOC[C@@H]4C)nc(N4CC5CCC(C4)O5)c3cn2)cc1CO [Compound 22, (5-(4-(8-oxa-3-azabicyclo[3.2.1]octan-3-yl)-2-((S)-3-methylmorpholinyl)pyrido[4,3-d]pyrimidin-7-yl)-2-methoxyphenyl)methanol] | 2.29 µM | 18.4 µM |
| COc1ccc(-c2cc3nc(N4CCOCC4)nc(N4C5CCC4COC5)c3cn2)cc1CO [Compound 24, (5-(4-(1R,5S)-3-oxa-8-azabicyclo[3.2.1]octan-8-yl)-2-morpholinylpyrido[4,3-d]pyrimidin-7-yl)-2-methoxyphenyl)methanol] | > 60 µM | 55.9 µM |
| CNC(=O)c1cccc(-c2ccc3c(N4CCOC[C@@H]4C)nc(N4CC5CCC(C4)O5)nc3n2)c1 [Compound 38, 3-(2-(8-oxa-3-azabicyclo[3.2.1]octan-3-yl)-4-((S)-3-methylmorpholinyl)pyrido[2,3-d]pyrimidin-7-yl)-N-methylbenzamide] | 0.13 µM | 0.47 µM |
| C[C@H]1COCCN1c1nc(N2CC3CCC(C2)O3)nc2cc(-c3ccccc3)ncc12 [Compound 31, 3-(4-((S)-3-methylmorpholinyl)-7-phenylpyrido[4,3-d]pyrimidin-2-yl)-8-oxa-3-azabicyclo[3.2.1]octane] | 0.423 µM | 1.39 µM |
| COc1ccc(-c2ccc3c(N4CC5CCC(C4)O5)nc(N4[C@@H]5CC[C@H]4COC5)nc3n2)cc1CO [Compound 11, 5-(4-(8-oxa-3-azabicyclo[3.2.1]octan-3-yl)-2-((1R,5S)-3-oxa-8-azabicyclo[3.2.1]octan-8-yl)pyrido[2,3-d]pyrimidin-7-yl)-2-methoxyphen ylmethanol] | 0.07 µM | 0.28 µM |
| COc1ccc(-c2ccc3c(N4CCOC[C@@H]4C)nc(N4C5CCC4COC5)nc3n2)cc1CO [Compound 8, 5-(2-((1R,5S)-3-oxa-8-azabicyclo[3.2.1]octan-8-yl)-4-((S)-3-methylmorpholine)pyrido[2,3-d]pyrimidin-7-yl)-2-methoxyphenylmethanol] | < 0.027 µM | 0.07 µM |
| COc1ccc(-c2cc3nc(N4CCOCC4)nc(N4CCOC[C@@H]4C)c3cn2)cc1CO [Compound 19, (S)-(2-methoxy-5-(4-(3-methylmorpholinyl)-2-morpholinylpyrido[4,3-d]pyrimidin-7-yl)phenyl)methanol] | 2.75 µM | 14.8 µM |
| c1ccc(-c2ncc3c(N4CCOCC4)nc(N4CCOCC4)nc3n2)cc1 [Compound 32, 4,4'-(7-phenylpyrimido[4,5-d]pyrimidin-2,4-diyl)-dimorpholine] | 6.71 µM | 20.4 µM |
